# Values of other authors in US4461901A, “Pyridyl containing 1,2-benzisothiazole-3-amine derivatives” (American Home Products Corporation, priority 1983, dated 1984).
# Tested on: H2 histamine receptors
# Settings: background statement; cited from earlier work
structure (smiles),measurement,value
CNC(=C[N+](=O)[O-])NCCSCc1ccc(CN(C)C)o1 [ranitidine],selective H2 antagonist activity versus cimetidine,greater activity than cimetidine
